# Reference: ChEMBL document CHEMBL1152554, “Synthesis and pharmacological evaluation of 6-naltrexamine analogs for alcohol cessation” (Bioorg Med Chem, 2009)
# Amino acid sequences for entries named in this document (tags omitted). A change or cut given only in a name is not applied to a line headed by its entry.
# UniProt P41146: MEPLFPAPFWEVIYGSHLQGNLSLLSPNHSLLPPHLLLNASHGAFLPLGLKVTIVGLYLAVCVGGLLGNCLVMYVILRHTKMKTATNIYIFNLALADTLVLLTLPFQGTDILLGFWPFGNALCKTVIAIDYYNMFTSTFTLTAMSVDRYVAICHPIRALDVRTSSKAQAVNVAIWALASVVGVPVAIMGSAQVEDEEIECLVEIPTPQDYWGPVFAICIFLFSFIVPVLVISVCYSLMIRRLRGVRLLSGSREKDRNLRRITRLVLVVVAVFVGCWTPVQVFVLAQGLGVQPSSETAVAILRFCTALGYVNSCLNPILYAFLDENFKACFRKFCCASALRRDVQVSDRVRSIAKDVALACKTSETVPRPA
# Legend:
# Nociceptin receptor = Nociceptin receptor (Homo sapiens, UniProt P41146); test: Inverse agonist activity at NOP expressed in HEK293 cells assessed as inhibition of [35S]GTPgammaS binding relative to basal level; format: functional, cell-based
# Rattus norvegicus [1] = test: Inhibition of ethanol intake in Wistar rat at 25 ug/kg, sc by alcohol-self administration test; format: functional; parameters: scale not given: the % may be the effect or the level left
# Rattus norvegicus [2] = test: Inhibition of ethanol intake in Wistar rat at 12.5 ug/kg, sc by alcohol-self administration test; format: functional; parameters: scale not given: the % may be the effect or the level left
SMILES,Emax (Nociceptin receptor) [%],Activity (Rattus norvegicus [1]) [%],Activity (Rattus norvegicus [2]) [%]
O=C(N[C@@H]1CC[C@@]2(O)[C@H]3Cc4ccc(O)c5c4[C@@]2(CCN3CC2CC2)[C@H]1O5)c1ccc(Cl)cc1,320,–,–
C=C1CC[C@@]2(O)[C@H]3Cc4ccc(O)c5c4[C@@]2(CCN3CC2CC2)[C@H]1O5,–,22.2,26.1
